Test results taken from publication PMC8833187 (Proceedings of the National Academy of Sciences of the …, 2022).

What was measured:
[1] = biological target: CaM/4Ca^2+ (A17C–R1, A128C–R1) (Homo sapiens, UniProt P0DP23, A129C/S18C); format: binding; conditions: DEER EPR
CaM/4Ca^2+ = CaM/4Ca^2+ (Homo sapiens, UniProt P0DP23); format: binding; conditions: ssNMR, optimized value (5–95% confidence limits)

- kAC ([1]; state A to final complex C, only lower limit can be determined): ≥4 × 10^3 ^* s^−1
- kA*B ([1]; state A* to intermediate B, optimized value (5–95% confidence limits)): 660 (570–760) s^−1
- kBC ([1]; state B to final complex C, optimized value (5–95% confidence limits)): 155 (110–215) s^−1
- kAC (CaM/4Ca^2+; state A to final complex C): 1.7 × 10^3 (1.2 × 10^3–2.3 × 10^3) s^−1
- kA*B (CaM/4Ca^2+; state A* to intermediate B): 410 (310–540) s^−1
- kBC (CaM/4Ca^2+; state B to final complex C): 55 (37–81) s^−1
Sequence: KRRWKKNFIAVSAANRFKKISSSGAL [M13]
